Results from paper PMC2788660 (Journal of medicinal chemistry, 2009).

Chains of the proteins cited; added tags and fusions are not shown. Lines headed by an entry give the natural chain unless they say otherwise; changes in a name come on top.
UniProt O15379: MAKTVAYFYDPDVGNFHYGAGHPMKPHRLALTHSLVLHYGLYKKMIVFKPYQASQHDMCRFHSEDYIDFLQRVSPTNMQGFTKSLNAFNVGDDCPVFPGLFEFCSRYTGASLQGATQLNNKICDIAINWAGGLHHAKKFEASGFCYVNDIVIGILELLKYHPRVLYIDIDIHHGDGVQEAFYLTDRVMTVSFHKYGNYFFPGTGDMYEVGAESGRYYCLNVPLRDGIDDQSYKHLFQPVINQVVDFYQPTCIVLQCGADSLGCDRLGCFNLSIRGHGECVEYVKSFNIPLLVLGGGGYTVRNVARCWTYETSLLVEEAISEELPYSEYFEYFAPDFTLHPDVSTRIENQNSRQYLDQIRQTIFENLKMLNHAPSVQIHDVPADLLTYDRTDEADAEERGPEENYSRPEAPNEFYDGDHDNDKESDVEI

Target: HDAC3–NCoR2 (Homo sapiens, UniProt O15379)

CC(C)C[C@H]1CC(=O)N[C@@H](CCCNC(=N)N)C(=O)N[C@@H](CCCCCC(=O)O)C(=O)N[C@@H](Cc2cccc3ccccc23)C(=O)N1 [compound 17, c[Asu-Nal-β^3Leu-Arg]] (cyclo([Asu][1Nal][β3hL]R); ring closure inferred)
fold more potent against HDAC3 compared to Ala–aa4 analog (8b): 4–5 fold

Square brackets hold non-standard residues; d marks the D form. Peptide text beside a SMILES is read from it. 1Nal = N[C@@H](Cc1cccc2ccccc12)C(=O)O; Asu = N[C@@H](CCCCCC(=O)O)C(=O)O; β3hL = CC(C)C[C@H](N)CC(=O)O
